{
  "sequences": {"note": "Chains of the proteins cited; added tags and fusions are not shown.", "UniProt Q8VD66, whole entry": "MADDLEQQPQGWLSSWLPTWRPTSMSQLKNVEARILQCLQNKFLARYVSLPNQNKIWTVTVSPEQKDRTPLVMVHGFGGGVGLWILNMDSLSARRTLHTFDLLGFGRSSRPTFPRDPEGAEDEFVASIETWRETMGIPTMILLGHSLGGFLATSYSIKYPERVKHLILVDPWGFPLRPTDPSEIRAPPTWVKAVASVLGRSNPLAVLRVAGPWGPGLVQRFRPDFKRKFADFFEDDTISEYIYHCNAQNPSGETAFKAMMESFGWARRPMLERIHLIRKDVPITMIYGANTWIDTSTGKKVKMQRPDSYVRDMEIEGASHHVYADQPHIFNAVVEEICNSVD"},
  "source": "PubChem BioAssay AID720543",
  "about": "(The Scripps Research Institute Molecular Screening Center, 2013)",
  "note": "The entries are a selection whose mix differs from that of the whole data set. Some results for these compounds are left out of this collection, so the calls shown say nothing about other tests. The source made the active and inactive calls.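 The calls were made as follows: active = inhibition exceeding the mean over every tested compound plus 3 SD (cut at about 30% in these data); inactive = the rest.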",
  "data": [
    {"target": "(Lyso)-N-acylphosphatidylethanolamine lipase (Mus musculus) (UniProt Q8VD66)", "assay": "mouse ABHD4 hydrolase activity blockers – biochemical, fluorescence polarization, primary screen (AID 720543);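 also: 0% = plate median of compound wells and 100% = S159A mutant with DMSO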", "details": "purified mABHD4, FP-Rh probe fluorescence polarization; at 8.92 µM; active compounds read high", "method_in_brief": "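Doses – 8.92 µM, single dose · Material – wild-type mouse ABHD4 protein · Replication – single well per compound (singlicate) · Measure – percent inhibition of probe binding, normalized to plate controls · Schedule – 45 min compound pre-incubation plus 60 min probe step, 25 °C · Detection – fluorescence polarization with parallel and perpendicular emission, 525/598 nm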", "values": [
      {"smiles": "CN(C)C1(CNC(=O)c2ccc(Br)cc2)CCCCC1", "inhibition": "inactive: 4.5%"},
      {"smiles": "COc1cc(C(=O)NCC2(N(C)C)CCCCC2)c([N+](=O)[O-])cc1OC", "inhibition": "inactive: 1.13%"},
      {"smiles": "COc1cccc(C(=O)NCC2(N3CCCCC3)CCCCC2)c1", "inhibition": "inactive: -0.75%"},
      {"smiles": "COc1ccc(Cl)cc1C(=O)NCC1(N(C)C)CCCCC1", "inhibition": "inactive: -3.33%"},
      {"smiles": "O=C(NCC1(N2CCCCC2)CCCCC1)c1cccc(Cl)c1", "inhibition": "inactive: -2.48%"},
      {"smiles": "O=C(OC1CN2CCC1CC2)C(CO)(c1ccccc1)c1ccccc1", "note": "(stereo unspecified)", "inhibition": "inactive: -0.47%"},
      {"smiles": "COc1ccc(Br)c(C(=O)NCC2(N3CCCCC3)CCCCC2)c1", "inhibition": "inactive: -3.5%"},
      {"smiles": "C=C(C)C#CC(O)(C(=O)OC1CCN(C)CC1)c1ccccc1", "note": "(stereo unspecified)", "inhibition": "inactive: -8.8%"},
      {"smiles": "CN(C)c1cccc(C(=O)NCC2(N(C)C)CCCCC2)c1", "inhibition": "inactive: -2.57%"},
      {"smiles": "CC(C)Oc1ccc(C(=O)NCC2(N(C)C)CCCCC2)cc1", "inhibition": "inactive: -0.44%"},
      {"smiles": "O=C(OCCN1CCCC1)C(O)(c1ccccc1)c1ccccc1", "inhibition": "inactive: -30%"},
      {"smiles": "O=C(NCC1(N2CCCCC2)CCCCC1)c1cc([N+](=O)[O-])ccc1Cl", "inhibition": "inactive: -0.66%"},
      {"smiles": "CN1[C@@H]2CC[C@H]1CC(OC(=O)C(O)(c1ccccc1)c1ccccc1)C2", "note": "(stereo partly specified)", "inhibition": "inactive: 2.41%"},
      {"smiles": "CC(C)N1C(=O)CC2(CCN(CCOC(=O)C(O)(c3ccccc3)c3ccccc3)CC2)C1=O", "inhibition": "inactive: 6.32%"},
      {"smiles": "CCN(CC)CC(C)C(C)OC(=O)C(O)(c1ccccc1)c1ccccc1", "note": "(stereo unspecified)", "inhibition": "inactive: 6.9%"},
      {"smiles": "COc1cc(SC)ccc1C(=O)NCC1(N(C)C)CCCCC1", "inhibition": "inactive: 2.38%"},
      {"smiles": "Cc1ccc(C(=O)NCC2(N3CCCCC3)CCCCC2)cc1", "inhibition": "inactive: -0.92%"},
      {"smiles": "Cc1ccccc1C(=O)NCC1(N2CCCCC2)CCCCC1", "inhibition": "inactive: 3.48%"},
      {"smiles": "CN(C)C1CCCC1OC(=O)C(O)(c1ccccc1)c1ccccc1", "note": "(stereo unspecified)", "inhibition": "inactive: 3.26%"},
      {"smiles": "CN(C)c1ccc(C(=O)NCC2(N(C)C)CCCCC2)cc1", "inhibition": "inactive: 2.08%"},
      {"smiles": "C=CCN1CCN(CCOC(=O)C(O)(c2ccccc2)c2ccccc2)CC1", "inhibition": "inactive: -2.02%"},
      {"smiles": "O=C(NCC1(N2CCCCC2)CCCCC1)c1cc(F)c(F)cc1Cl", "inhibition": "inactive: -6%"},
      {"smiles": "Cc1cc(C(=O)NCC2(N3CCCCC3)CCCCC2)ccc1[N+](=O)[O-]", "inhibition": "inactive: -0.53%"},
      {"smiles": "CCN1CCCC(OC(=O)C2(O)c3ccccc3C=Cc3ccccc32)C1", "note": "(stereo unspecified)", "inhibition": "inactive: -7.59%"},
      {"smiles": "O=C(NCC1(N2CCCCC2)CCCCC1)c1cccc(Br)c1", "inhibition": "inactive: 9.09%"},
      {"smiles": "COc1ccc(C(=O)NCC2(N(C)C)CCCCC2)cc1", "inhibition": "inactive: 6.76%"}
    ]}
  ]
}
